Results on one substance are retold here after US8734776B2 (ZymoGenetics, Inc., priority 2003, dated 2014).

This assay concerns EMCV. In words: EMCV antiviral dye-uptake assay in HepG2 cells. The class given is cell-based, human. The conditions noted are these: dye-uptake OD570.

In turn, “IFN-β: interferon-β [reference compound]” came in with an EC50 antiviral activity of 0.46 ng/mL.
